Bioassay records from PubChem.
Most compounds without a hit are left out; they make up all but 3.7% or so of the library.
TCR activator: T cell receptor activation; primary human leukocytes, anti-CD3, IL-2 HTRF, 48 h; Potency, µM (highest dose often 9.22 µM), for inactives: at the highest dose activation of IL-2 secretion, hits mostly activators; 330,000 tested, under 10 active; note: % of control where 0% means no effect
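Primary human leukocytes incubated 48 hr with anti-CD3 beads plus compound, without co-stimulation. Secreted IL-2 measured by HTRF (europium cryptate/d2 anti-IL-2 pair, 320 nm excitation, 665 nm emission).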
Nrf2 ARE act: Nrf2 pathway activation; AREc32 ARE-luciferase reporter (MCF7-derived line), luminescence, 24 h; Potency, µM (doses to about 46.1 µM), inactives show at the highest dose activation, most hits filed as activators; actives 0.31% (n = 410,000); AID 624171; note: potency is the fitted concentration of half-maximal effect; % of control where 0% means no effect; nearly all actives have a fitted effect of over 65% in size
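Each well held 1000 AREc32 cells, which were incubated with compound for 24 hr at 37 deg C after overnight attachment, and ARE reporter activity was quantified by firefly luciferase luminescence.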
Nrf2 inh: Nrf2 pathway inhibition | A549 ARE-Fluc reporter, luciferase luminescence, 18-24 h | Potency, µM (series often up to 46 µM), for inactives: at the top dose activity change, negative = inhibition, most hits filed as inhibitors | actives 2.1% (n = 360,000); note: potency is the fitted concentration of half-maximal effect; % is set by controls: 0 for no effect and ±100 for the full control effect; nearly all actives have a fitted effect of over 60% in size
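Cells were seeded and rested 2 h, then exposed to compounds for 18-24 h. CellTiter-Fluor was read first as a viability measure. BugLite was added 15 min before the final luminescent read of ARE-luciferase activity in A549 cells.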
ClpP mod: qHTS Assay for Activators of ClpP | ATP-dependent Clp protease proteolytic subunit (Bacillus subtilis (strain 168)), P80244 | purified B. subtilis ClpP, FRET peptide cleavage, 20 min | Potency, µM (top dose mostly 57.5 µM), inactives show at the highest dose activity change, negative = active | actives 1.9% (n = 340,000); active = well fitted falling curve with a large enough effect; inconclusive = small, poorly fitted or top-dose-only effect; inactive = no such curve, though single readings can be large or run the other way; note: potency is the fitted concentration of half-maximal effect; the source files actives as falling curves though it sought activators and does not explain the sign; nearly all actives have a fitted effect of over 65% in size
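ClpP 10 microg/mL final, pH 8 Tris/KCl buffer with BSA, glycerol, Tween-20; compound pinned in; FRET-FV substrate; RT 20 min; Ex320/Em430; ΔFRET vs ADEP 5.8 microM, DMSO, no enzyme.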
miR-21 reporter: miR-21 reporter, rising signal. 340,000 tested, under 10 active. Potency, µM (highest dose often 38.3 µM), for the others: at the highest dose reporter change, positive = more light. HeLa miR-21 FLuc reporter, luciferase, 48 h. AID 2288; active = well fitted rising curve with a large enough effect; inconclusive = small, poorly fitted or top-dose-only effect; inactive = no such curve, though single readings can be large or run the other way;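 further: % of control where 0% means no effect; miR-21 action dims this reporter so a rising signal means less miR-21 action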
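HeLa cells endogenously expressing miR-21, stably carrying CMV-driven firefly luciferase with a downstream miR-21 binding site, 2000 cells/well. Titrations up to approximately 40 uM, 48 hours; luciferase luminescence read.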
A549 tox-1: counter-screen for Nrf2 inhibitors: cytotoxicity in A549 cells | actives 0.16% (n = 390,000) | A549 ARE-Fluc cells, CellTiter-Fluor viability, 18-24 h | Potency, µM (doses to about 46 µM), inactives show top-dose activity change, negative = cytotoxicity, most hits filed as inhibitors | AID 504648; note: potency is the fitted concentration of half-maximal effect; % is set by controls: 0 for no effect and ±100 for the full control effect
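A549 ARE-Fluc cells in 5% FBS OPTI-MEM, 5000 cells/well, rested 2 h then exposed to compounds in concentration-response for 18-24 h at 37 °C. Viability by CellTiter-Fluor fluorescence (Ex 405/Em 525) after 30 min; luciferase luminescence (BugLite, 15 min, RT) read afterwards.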
FLuc counter 3: counter-screen for Nrf2 inhibitors: firefly luciferase enzyme inhibition | shares compounds with Nrf2 inh | purified firefly luciferase, luminescence inhibition | Potency, µM (highest dose often 57.5 µM), without a hit: top-dose activity change, negative = inhibition, actives largely listed as inhibitors | actives 4% (n = 1,400) | AID 720522; note: potency is the fitted concentration of half-maximal effect; % is set by controls: 0 for no effect and ±100 for the full control effect; nearly all actives have a fitted effect of over 65% in size
A549 tox-2: A549 cytotoxicity, Nrf2 inhibitor counterscreen | AID 720523 | actives 2% (n = 1,400) | Potency, µM (series often up to 46.1 µM), for inactives: at the highest dose activity change, negative = cytotoxicity, hits mostly inhibitors | A549 ARE-Fluc cells, cytotoxicity counterscreen | shares compounds with Nrf2 inh;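 note: potency is the fitted concentration of half-maximal effect; cells exposed to compounds for 18 to 24 hours; % is set by controls: 0 for no effect and ±100 for the full control effect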
ARE-Fluc inh: Nrf2 inhibition confirmed, A549 ARE-luciferase; shares compounds with Nrf2 inh; A549 ARE-firefly luciferase reporter, luminescence; Potency, µM (doses to about 46.1 µM), without a hit: top-dose activity change, negative = inhibition, usual class: inhibitors; actives 74% (n = 1,400); AID 720524; note: potency is the fitted concentration of half-maximal effect; % is set by controls: 0 for no effect and ±100 for the full control effect; nearly all actives have a fitted effect of over 65% in size
* marks the source's active call; other numbers are inactive results; ? = inconclusive; . = not tested or not shown; [ ] = another dose, or the depositor's remark. Unless noted, calls come from the whole dose curve; as a rule, active = well fitted curve in the direction sought with a large enough effect; inconclusive = small, poorly fitted or top-dose-only effect, or another doubt; inactive = no such curve, though single readings can be large; an effect the other way counts as inactive or inconclusive.

Short forms: A = TCR activator; B = Nrf2 ARE act; C = Nrf2 inh; D = ClpP mod; E = miR-21 reporter; F = A549 tox-1; G = FLuc counter 3; H = A549 tox-2; I = ARE-Fluc inh
canonical_smiles: CCCCNC(=O)C(CC)(ONc1ccccc1C(F)(F)F)c1ccccc1OC (centres undefined)
  A = 0%; B = 3%; C = 3%; D = 3%; E = .; F = 1%; G = .; H = .; I = .

canonical_smiles: COCCc1nn2c(=O)cc(COC(=O)COc3ccc(F)cc3)nc2s1
  A = .; B = 5%; C = ?; D = -6%; E = 2%; F = 2%; G = .; H = .; I = .

canonical_smiles: Cc1ccc(Nc2nc(Nc3ccc(Cl)cc3)nc(N3CCOCC3)n2)cc1
  A = .; B = .; C = -16%; D = 7%; E = .; F = 7%; G = .; H = .; I = .

canonical_smiles: CNc1ccc(/C=C2\C=Cc3ccccc32)cc1
  A = .; B = .; C = .; D = 0%; E = .; F = .; G = .; H = .; I = .

canonical_smiles: CNc1ccc(C=C2c3ccccc3-c3ccccc32)cc1
  A = .; B = .; C = .; D = 1%; E = .; F = .; G = ?; H = -25%; I = 3.7µM*

canonical_smiles: C/C(=N\NC(=O)COc1ccccc1-c1ccccc1)c1ccccn1
  A = 4%; B = ?; C = 4.6µM*; D = .; E = 16%; F = ?; G = 0%; H = -7%; I = 1.3µM*

canonical_smiles: CCNC(=O)C1(C)CCN(C(=O)c2ccc(OC(F)F)cc2)C1 (centres undefined)
  A = .; B = 0%[9.22 µM]; C = .; D = -1%; E = .; F = .; G = .; H = .; I = .

canonical_smiles: O=C(Nc1ccc(-c2nc3ccccc3s2)cc1)c1cc(-n2cnnc2)ccc1Cl
  A = 6%; B = 3%; C = 2.3µM*; D = ?; E = 22%; F = ?; G = ?; H = -13%; I = 7.3µM*

canonical_smiles: CC(C)(C)c1ccc(C(=O)Nc2cccc(-n3cnnn3)c2)cc1
  A = -4%; B = 0%; C = ?; D = 0%; E = 19%; F = 2%; G = .; H = .; I = .

canonical_smiles: CCCn1c2ccccc2c2cnn(CC(=O)Nc3ccc(C)cc3Br)c(=O)c21
  A = .; B = -1%; C = -2%; D = -4%; E = 9%; F = 0%; G = .; H = .; I = .

Three records picked at random from those above, as already listed:
Short forms: A = TCR activator; B = Nrf2 ARE act; C = Nrf2 inh; D = ClpP mod; E = miR-21 reporter; F = A549 tox-1; G = FLuc counter 3; H = A549 tox-2; I = ARE-Fluc inh
canonical_smiles: CCNC(=O)C1(C)CCN(C(=O)c2ccc(OC(F)F)cc2)C1 (centres undefined)
  A = .; B = 0%[9.22 µM]; C = .; D = -1%; E = .; F = .; G = .; H = .; I = .

canonical_smiles: CNc1ccc(C=C2c3ccccc3-c3ccccc32)cc1
  A = .; B = .; C = .; D = 1%; E = .; F = .; G = ?; H = -25%; I = 3.7µM*

canonical_smiles: O=C(Nc1ccc(-c2nc3ccccc3s2)cc1)c1cc(-n2cnnc2)ccc1Cl
  A = 6%; B = 3%; C = 2.3µM*; D = ?; E = 22%; F = ?; G = ?; H = -13%; I = 7.3µM*

New compounds follow
Short forms: A = TCR activator; B = Nrf2 ARE act; C = Nrf2 inh; D = ClpP mod; E = miR-21 reporter; F = A549 tox-1; G = FLuc counter 3; H = A549 tox-2; I = ARE-Fluc inh
canonical_smiles: CN(Cc1ccc(Cl)c(Cl)c1)C(=O)c1cccc(S(=O)(=O)N2CCN(Cc3ccccc3)CC2)c1
  A = -3%; B = 0%; C = 9.2µM*; D = -2%; E = .; F = -20%; G = -2%; H = -24%; I = ?

canonical_smiles: CCN(CC(=O)Nc1ccc(OC)cc1)C(=O)c1cccc(S(=O)(=O)N2CCN(c3ccccc3)CC2)c1
  A = .; B = 1%; C = .; D = -5%; E = .; F = .; G = .; H = .; I = .

canonical_smiles: CN(Cc1ccc(OC(F)F)cc1)C(=O)c1cccc(S(=O)(=O)N2CCN(c3ccccc3)CC2)c1
  A = 11%; B = 0%; C = 4.6µM*; D = -2%; E = .; F = -17%; G = -2%; H = 2%; I = .

canonical_smiles: Cc1ccc(N(CC(=O)Nc2cc(C)cc(C)c2)S(=O)(=O)c2c(C)noc2C)cc1
  A = -8%; B = 0%; C = 7.3µM*; D = 0%; E = ?; F = ?; G = 2%; H = -19%; I = 12µM*

canonical_smiles: CCc1ccc2c(c1)-c1ccccc1S(=O)(=O)N2CC(=O)N1CCC(C)CC1
  A = .; B = 5%; C = 22%; D = 1%; E = -23%; F = -9%; G = .; H = .; I = .

canonical_smiles: Cc1ccc(Nc2c(-c3ccccn3)nc3cccc(C)n23)cc1
  A = 11%; B = 3%; C = 6.5µM*; D = -5%; E = ?; F = ?; G = -8%; H = ?; I = 5.2µM*

canonical_smiles: Cc1ccc(Nc2c(-c3ccc(C)o3)nc3cccc(C)n23)cc1
  A = .; B = 1%; C = -3%; D = 4%; E = 0%; F = 1%; G = .; H = .; I = .

canonical_smiles: CCc1nc2ccc(C(=O)N3CCN(C(=O)c4ccco4)CC3)cn2c1N(C)C(=O)COc1ccccc1
  A = .; B = 0%; C = .; D = -11%; E = .; F = .; G = .; H = .; I = .

canonical_smiles: N#Cc1cccc(NC(=O)CNc2cccc(S(=O)(=O)N3CCCC3)c2)c1
  A = -8%; B = 4%; C = 7.3µM*; D = .; E = .; F = ?; G = 2%; H = -7%; I = ?

canonical_smiles: O=C(CNc1cccc(C(F)(F)F)c1)Nc1cccc(S(=O)(=O)N2CCCC2)c1
  A = 1%; B = 0%; C = ?; D = -3%; E = .; F = -23%; G = .; H = .; I = .

canonical_smiles: N#Cc1cccc(NCC(=O)Nc2cccc(S(=O)(=O)N3CCCCC3)c2)c1
  A = 3%; B = 0%; C = ?; D = -11%; E = .; F = -2%; G = .; H = .; I = .

canonical_smiles: CCN(CC)S(=O)(=O)c1cc(NC(=O)CNc2cccc(S(=O)(=O)N3CCOCC3)c2)ccc1C
  A = -7%; B = 0%; C = 0.58µM*; D = 1%; E = .; F = -20%; G = 0%; H = -16%; I = 3.7µM*

canonical_smiles: O=C(CNc1cc(S(=O)(=O)N2CCCC2)ccc1OCC(F)(F)F)Nc1cccc(C(F)(F)F)c1
  A = 4%[46.1 µM]; B = -1%[9.22 µM]; C = 7.3µM*; D = -24%; E = 26%; F = -19%; G = 0%; H = -18%; I = 13µM*

canonical_smiles: CCc1ccc(NC(=O)CCC(=O)Nc2nnc(C(C)C)s2)cc1
  A = 4%; B = 0%; C = -1%; D = -1%; E = -4%; F = 1%; G = .; H = .; I = .

canonical_smiles: CC1=C(C(=O)N2CCCCCC2)CC(CC(=O)NCCN2CCOCC2)C(=O)N1Cc1ccccc1 (centres undefined)
  A = .; B = -1%; C = .; D = 1%; E = .; F = .; G = .; H = .; I = .

canonical_smiles: CN(C)c1ccc(/C=C/c2ccnc3ccc(-c4ccccc4)cc23)cc1
  A = .; B = .; C = .; D = 0%; E = .; F = .; G = .; H = .; I = .

canonical_smiles: Cc1cc(C)c2nc(C(F)(F)F)c(C#N)c(N)c2c1
  A = -1%; B = 0%; C = ?; D = -1%; E = 1%; F = -20%; G = .; H = .; I = .

canonical_smiles: Cc1ccc2nc(C(F)(F)F)c(C#N)c(N)c2c1
  A = 5%; B = -2%; C = 3.7µM*; D = -19%; E = 25%; F = ?; G = -12%; H = -26%; I = 7.3µM*

canonical_smiles: Cc1ccc2c(Cl)c(C)c(N3CCOCC3)nc2n1
  A = 3%; B = 0%; C = ?; D = .; E = .; F = 8%; G = .; H = .; I = .

canonical_smiles: O=c1c2cc3c(cc2n(Cc2ccc(Cl)cc2)c(=O)n1Cc1nc(-c2ccccc2)no1)OCO3
  A = .; B = 0%; C = 12%; D = -18%; E = -2%; F = 3%; G = .; H = .; I = .

canonical_smiles: CC(=NNc1ccc2ccccc2n1)c1ccccc1O
  A = 4%; B = ?; C = ?; D = -2%; E = .; F = 1%; G = 0.038µM*; H = -6%; I = ?

canonical_smiles: C/C(=N\Nc1nc2ccccc2nc1C)c1ccccc1O
  A = -5%; B = 6%; C = 0%; D = .; E = -8%; F = -14%; G = .; H = .; I = .
